## Antibody variant affinities, Ab-95 light chain, assay 2

All variants were tested on one target, the spike HR2 peptide PDVDLGDISGINAS (SARS-CoV-2).

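The parent was found by panning a naive human phage display library on the peptide. Library AAYL52 holds single substitutions and randomly drawn double and triple substitutions in the CDRs. The scFvs were displayed on barcoded MATa yeast, the peptide on MATalpha yeast. Pairs that bind mate more often; barcode pairs of the diploids are counted by sequencing. Each replicate has its own calibration line, from reference interactions of the BCL2 family. Each pool was mated in three replicate cultures.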

Ab-95 is the parent antibody, in scFv form: VH, then a 15-residue (Gly4Ser)3 linker, then VL. The heavy chain is unchanged in all variants.
VH: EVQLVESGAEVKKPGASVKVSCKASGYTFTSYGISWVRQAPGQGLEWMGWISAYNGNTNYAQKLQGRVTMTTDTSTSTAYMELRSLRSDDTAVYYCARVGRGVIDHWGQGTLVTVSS
VL: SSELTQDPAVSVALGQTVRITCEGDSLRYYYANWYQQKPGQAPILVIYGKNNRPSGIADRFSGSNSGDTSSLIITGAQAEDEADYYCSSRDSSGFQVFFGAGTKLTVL

Substitutions are numbered in sequence along the VL above, starting at 1 (not Kabat).
Kd is apparent (estimated from mating counts) and averaged on the log scale over replicates with a signal. Smaller is tighter.
An entry "no signal" has no value in the source: the pair was not observed among the diploids in any replicate. This suggests poor binding but is not conclusive.
Nonspecific signal, from three strains lacking the peptide, appeared in 28% of pairings of library AAYL52, centred on 8.2 µM (5% of these signals below 800 nM); values are not corrected for it. Also given: how often the same scFv was detected with the empty control strains.

{"changes": "D25Q+D91T+G94F", "apparent Kd": "260 nM", "replicates with signal": "3 of 3", "control signals": "5 of 9"}
{"changes": "R53H+P54G+R90N", "apparent Kd": "590 nM", "replicates with signal": "2 of 3", "control signals": "3 of 9"}
{"changes": "S88E+S89V+S93C", "apparent Kd": "12 µM", "replicates with signal": "2 of 3", "control signals": "1 of 9"}
{"changes": "Y29D+P54S+V97N", "apparent Kd": "7.5 µM", "replicates with signal": "2 of 3", "control signals": "2 of 9"}
{"changes": "E23Q+L27M+D91A", "apparent Kd": "1.4 µM", "replicates with signal": "3 of 3", "control signals": "1 of 9"}
{"changes": "D25A+S92W+V97D", "apparent Kd": "9.4 µM", "replicates with signal": "2 of 3", "control signals": "5 of 9"}
{"changes": "Y30K+S55E+S89V", "apparent Kd": "3.9 nM", "replicates with signal": "3 of 3", "control signals": "4 of 9"}
{"changes": "G24W+Y29S+Q96F", "apparent Kd": "15 µM", "replicates with signal": "1 of 3", "control signals": "4 of 9"}
{"changes": "N51C+N52D+S93M", "apparent Kd": "8.6 µM", "replicates with signal": "2 of 3", "control signals": "4 of 9"}
{"changes": "Y29Q+P54E+F95V", "apparent Kd": "2.1 µM", "replicates with signal": "1 of 3", "control signals": "3 of 9"}
{"changes": "R28C+Y29H+R53P", "apparent Kd": "1.5 µM", "replicates with signal": "2 of 3", "control signals": "3 of 9"}
{"changes": "S26M+V97F", "apparent Kd": "1.4 µM", "replicates with signal": "2 of 3", "control signals": "3 of 9"}
{"changes": "Y29S+G49V", "apparent Kd": "1.0 µM", "replicates with signal": "3 of 3", "control signals": "5 of 9"}
{"changes": "G24S+L27T+S88N", "apparent Kd": "3.9 µM", "replicates with signal": "1 of 3", "control signals": "3 of 9"}
{"changes": "Y29G+G49A+S92E", "apparent Kd": "76 nM", "replicates with signal": "3 of 3", "control signals": "1 of 9"}
{"changes": "D25S+G49V+K50I", "apparent Kd": "no signal", "replicates with signal": "0 of 3", "control signals": "0 of 9"}
{"changes": "D25P+N33V+F95Q", "apparent Kd": "66 µM", "replicates with signal": "2 of 3", "control signals": "2 of 9"}
{"changes": "A32D+N52A+V97N", "apparent Kd": "660 nM", "replicates with signal": "3 of 3", "control signals": "5 of 9"}
{"changes": "L27W+S55C", "apparent Kd": "2.5 µM", "replicates with signal": "1 of 3", "control signals": "4 of 9"}
{"changes": "S26H+Y29C+R90Y", "apparent Kd": "34 µM", "replicates with signal": "3 of 3", "control signals": "4 of 9"}
{"changes": "R53D+S92I+F98Y", "apparent Kd": "no signal", "replicates with signal": "0 of 3", "control signals": "1 of 9"}
{"changes": "D25Q+N33E+S55A", "apparent Kd": "170 nM", "replicates with signal": "3 of 3", "control signals": "2 of 9"}

The first 4 entries again:

changes	apparent Kd	replicates with signal	control signals
D25Q+D91T+G94F	260 nM	3 of 3	5 of 9
R53H+P54G+R90N	590 nM	2 of 3	3 of 9
S88E+S89V+S93C	12 µM	2 of 3	1 of 9
Y29D+P54S+V97N	7.5 µM	2 of 3	2 of 9

Parent in this assay: reference entry 200 nM, copy in this library 180 nM.

Source: Engelhart et al. 2022 (doi:10.1038/s41597-022-01779-4), MIT Lincoln Laboratory and A-Alpha Bio; data file from the FLAb repository.